Patent US20110052537A1, “NITRO-BASED EXPLOSIVE REMEDIATION” (published 2011)
Some compounds may have been tested in ways that are not shown here.

Assay: Absorption and distribution of [14C]TNT in sheep
Conditions: oral 35.5 mg
[1] = average of wether 368 and 370, at slaughter

Substance: 2,4,6-trinitro-[^14C]toluene
- % of [14C]TNT dose in cage wash (average of wether 368 and 370): 0.3%
- % of [14C]TNT dose in feces T0-6 (average of wether 368 and 370): 0.2%
- % of [14C]TNT dose in feces T6-12 (average of wether 368 and 370): 3.0%
- % of [14C]TNT dose in feces T12-18 (average of wether 368 and 370): 11.8%
- % of [14C]TNT dose in feces T18-24 (average of wether 368 and 370): 8.7%
- % of [14C]TNT dose in feces T24-32 (average of wether 368 and 370): 13.8%
- % of [14C]TNT dose in feces T32-40 (average of wether 368 and 370): 15.6%
- % of [14C]TNT dose in feces T40-48 (average of wether 368 and 370): 9.0%
- % of [14C]TNT dose in feces T48-60 (average of wether 368 and 370): 10.1%
- % of [14C]TNT dose in feces T60-72 (average of wether 368 and 370): 4.6%
- % of [14C]TNT dose in feces, total (average of wether 368 and 370): 76.6%
- % of [14C]TNT dose in urine T0-6 (average of wether 368 and 370): 12.6%
- % of [14C]TNT dose in urine T6-12 (average of wether 368 and 370): 2.6%
- % of [14C]TNT dose in urine T12-18 (average of wether 368 and 370): 0.7%
- % of [14C]TNT dose in urine T18-24 (average of wether 368 and 370): 0.4%
- % of [14C]TNT dose in urine T24-32 (average of wether 368 and 370): 0.2%
- % of [14C]TNT dose in urine T32-40 (average of wether 368 and 370): 0.2%
- % of [14C]TNT dose in urine T40-48 (average of wether 368 and 370): 0.2%
- % of [14C]TNT dose in urine T48-60 (average of wether 368 and 370): 0.2%
- % of [14C]TNT dose in urine T60-72 (average of wether 368 and 370): 0.1%
- % of [14C]TNT dose in urine, total (average of wether 368 and 370): 17.1%
- total recovery (%) of [14C]TNT dose (average of wether 368 and 370): 99.3%
- % of [14C]TNT dose in tissues: adipose [1]: 0.00%
- % of [14C]TNT dose in tissues: bile [1]: 0.00%
- % of [14C]TNT dose in tissues: blood [1]: 0.00%
- % of [14C]TNT dose in tissues: bone [1]: 0.03%
- % of [14C]TNT dose in tissues: brain [1]: 0.00%
- % of [14C]TNT dose in tissues: eye [1]: 0.01%
- % of [14C]TNT dose in tissues: heart [1]: 0.00%
- % of [14C]TNT dose in tissues: kidney [1]: 0.01%
- % of [14C]TNT dose in tissues: large intestine content [1]: 2.40%
- % of [14C]TNT dose in tissues: large intestine tissue [1]: 0.02%
- % of [14C]TNT dose in tissues: liver [1]: 0.07%
- % of [14C]TNT dose in tissues: lung [1]: 0.01%
- % of [14C]TNT dose in tissues: remainder of carcass [1]: 0.03%
- % of [14C]TNT dose in tissues: rumen content [1]: 2.60%
- % of [14C]TNT dose in tissues: rumen tissue [1]: 0.06%
- % of [14C]TNT dose in tissues: skeletal muscle [1]: 0.02%
- % of [14C]TNT dose in tissues: skin [1]: 0.07%
- % of [14C]TNT dose in tissues: small intestine content [1]: 0.11%
- % of [14C]TNT dose in tissues: small intestine tissue [1]: 0.02%
- % of [14C]TNT dose in tissues: spleen [1]: 0.00%
- % of [14C]TNT dose in tissues: thyroid [1]: 0.00%
- % of [14C]TNT dose in cage wash (wether 367): 0.4%
- % of [14C]TNT dose in feces T0-6 (wether 367): 0.2%
- % of [14C]TNT dose in feces T6-12 (wether 367): 0.1%
- % of [14C]TNT dose in feces T12-18 (wether 367): 0.1%
- % of [14C]TNT dose in feces T18-24 (wether 367): 0.1%
- % of [14C]TNT dose in feces T24-32 (wether 367): 0.0%
- % of [14C]TNT dose in feces T32-40 (wether 367): 0.1%
- % of [14C]TNT dose in feces T40-48 (wether 367): 0.0%
- % of [14C]TNT dose in feces T48-60 (wether 367): 0.5%
- % of [14C]TNT dose in feces T60-72 (wether 367): 3.9%
- % of [14C]TNT dose in feces, total (wether 367): 5.0%
- % of [14C]TNT dose in urine T0-6 (wether 367): 16.8%
- % of [14C]TNT dose in urine T6-12 (wether 367): 9.5%
- % of [14C]TNT dose in urine T12-18 (wether 367): 3.2%
- % of [14C]TNT dose in urine T18-24 (wether 367): 2.2%
- % of [14C]TNT dose in urine T24-32 (wether 367): 0.5%
- % of [14C]TNT dose in urine T32-40 (wether 367): 0.0%
- % of [14C]TNT dose in urine T40-48 (wether 367): 0.7%
- % of [14C]TNT dose in urine T48-60 (wether 367): 0.3%
- % of [14C]TNT dose in urine T60-72 (wether 367): 0.4%
- % of [14C]TNT dose in urine, total (wether 367): 33.6%
- total recovery (%) of [14C]TNT dose (wether 367): 102.1%
- % of [14C]TNT dose in tissues, total (wether 367, at slaughter): 63.09%
- % of [14C]TNT dose in tissues: adipose (wether 367, at slaughter): 0.00%
- % of [14C]TNT dose in tissues: bile (wether 367, at slaughter): 0.01%
- % of [14C]TNT dose in tissues: blood (wether 367, at slaughter): 0.00%
- % of [14C]TNT dose in tissues: bone (wether 367, at slaughter): 0.24%
- % of [14C]TNT dose in tissues: brain (wether 367, at slaughter): 0.00%
- % of [14C]TNT dose in tissues: eye (wether 367, at slaughter): 0.02%
- % of [14C]TNT dose in tissues: heart (wether 367, at slaughter): 0.01%
- % of [14C]TNT dose in tissues: kidney (wether 367, at slaughter): 0.03%
- % of [14C]TNT dose in tissues: large intestine content (wether 367, at slaughter): 8.80%
- % of [14C]TNT dose in tissues: large intestine tissue (wether 367, at slaughter): 0.14%
- % of [14C]TNT dose in tissues: liver (wether 367, at slaughter): 0.19%
- % of [14C]TNT dose in tissues: lung (wether 367, at slaughter): 0.03%
- % of [14C]TNT dose in tissues: remainder of carcass (wether 367, at slaughter): 0.31%
- % of [14C]TNT dose in tissues: rumen content (wether 367, at slaughter): 51.18%
- % of [14C]TNT dose in tissues: rumen tissue (wether 367, at slaughter): 0.93%
- % of [14C]TNT dose in tissues: skeletal muscle (wether 367, at slaughter): 0.47%
- % of [14C]TNT dose in tissues: skin (wether 367, at slaughter): 0.38%
- % of [14C]TNT dose in tissues: small intestine content (wether 367, at slaughter): 0.26%
- % of [14C]TNT dose in tissues: small intestine tissue (wether 367, at slaughter): 0.08%
- % of [14C]TNT dose in tissues: spleen (wether 367, at slaughter): 0.01%
- % of [14C]TNT dose in tissues: thyroid (wether 367, at slaughter): 0.00%
